Consider one compound from article PMC6598531, “Appraisal of anti-protozoan activity of nitroaromatic benzenesulfonamides inhibiting carbonic anhydrases from Trypanosoma cruzi and Leishmania donovani” (Journal of Enzyme Inhibition and Medicinal Chemistry, 2019).

Chains of the proteins cited; added tags and fusions are not shown. Lines headed by an entry give the natural chain unless they say otherwise; changes in a name come on top.
UniProt P00915: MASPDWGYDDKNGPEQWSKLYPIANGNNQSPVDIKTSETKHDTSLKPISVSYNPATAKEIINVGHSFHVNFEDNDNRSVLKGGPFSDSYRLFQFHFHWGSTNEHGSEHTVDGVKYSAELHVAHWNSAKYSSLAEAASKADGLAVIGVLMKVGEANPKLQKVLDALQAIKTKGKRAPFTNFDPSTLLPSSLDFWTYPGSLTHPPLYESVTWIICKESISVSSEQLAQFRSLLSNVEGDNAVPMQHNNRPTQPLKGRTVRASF

The target of one test is hCA I (Homo sapiens, UniProt P00915). The experiment in a line: stopped flow CO2 hydrase assay, hCA I inhibition. The note with it: read-out: KI hCA I, mean from three assays.
Another test has as its target hCA II (Homo sapiens, UniProt P00918). The experiment in a line: stopped flow CO2 hydrase assay, hCA II inhibition. Particulars: read-out: KI hCA II, mean from three assays.

For the compound `NS(=O)(=O)c1cc([N+](=O)[O-])c(O)c([N+](=O)[O-])c1`, the Ki (commonly the equilibrium dissociation constant of an inhibitor or competing ligand from its target) was 4350 nM at hCA I and 180 nM at hCA II.
